Activity calls are given as the source filed them.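 How the source made its calls: active means compounds whose IC50 is 20 micromolar or lower, counted as confirmed SKN-1 reporter blockers; inactive means the rest.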
Tested on: C. elegans VP596 Pgst-4::GFP/RFP ratio, acrylamide, 24 h
Test: C. elegans gst-4 reporter suppression, concentration series – whole organism, GFP/RFP fluorescence ratio, set 2, strain VP596, SKN-1 inhibitor project, dose response (AID 651563);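 further: red signal is driven by the dop-3 promoter and serves as the normalizer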

With `CCc1ccc(-c2nc(-c3ccncc3)no2)cc1` the IC50 was inactive: 21.8 µM.
